Test results as given in patent publication US9624246B2, “Pyridazinone macrocycles as IRAK inhibitors and uses thereof” (Merck Patent GmbH, priority 2015, dated 2017).

Amino acid sequences for entries named in this document (tags omitted). Residues count along the entry.
UniProt P51617, 194-712: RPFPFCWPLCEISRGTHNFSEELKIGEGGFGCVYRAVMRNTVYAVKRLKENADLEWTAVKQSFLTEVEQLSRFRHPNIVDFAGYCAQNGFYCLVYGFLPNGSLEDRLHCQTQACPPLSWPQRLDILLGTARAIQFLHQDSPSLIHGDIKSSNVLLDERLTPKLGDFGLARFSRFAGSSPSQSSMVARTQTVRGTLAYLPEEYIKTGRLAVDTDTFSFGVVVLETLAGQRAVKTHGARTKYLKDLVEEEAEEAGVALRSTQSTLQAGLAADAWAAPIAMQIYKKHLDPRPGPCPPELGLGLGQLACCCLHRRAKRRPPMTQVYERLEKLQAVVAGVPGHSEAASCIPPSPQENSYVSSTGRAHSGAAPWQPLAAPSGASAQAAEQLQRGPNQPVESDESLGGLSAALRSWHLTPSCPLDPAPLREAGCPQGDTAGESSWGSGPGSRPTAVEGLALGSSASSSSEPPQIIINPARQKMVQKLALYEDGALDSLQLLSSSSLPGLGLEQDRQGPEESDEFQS

Target: human purified recombinant IRAK1 (His-TEV-IRAK1 (194-712)) (Homo sapiens (Human), UniProt P51617)
Assay: IRAK1 enzymatic assay (ADP-Glo luminescence)
Assay type: biochemical
Conditions: ATP 1 μM, 2 h at RT
Method: IRAK1 is a human purified recombinant enzyme (His-TEV-IRAK1 (194-712))
In this assay, IRAK1 hydrolyses ATP and autophosphorylates. Measurement of IRAK-1 inhibition is performed in 384-well format based on luminescence assay (ADP-Glo™ Kinase Assay from Promega). Purified human recombinant IRAK1 (0.3 μg/ml) and serial diluted compounds in DMSO (range of concentration from 10 μM to 0.5 nM) or controls (1% DMSO) are incubated for 15 minutes at RT in assay buffer containing 50 mM Hepes pH 7.0, Fatty acid-free BSA 0.1%, Dithiothreitol (DTT) 2 mM, MgCl2 10 mM, EGTA 0.5 mM, Triton X-100 0.01%. The kinase reaction is then initiated by the addition of ATP at a concentration of 1 μM. After 2 hours of incubation at RT, the reaction is stopped and the unconsumed ATP depleted by the addition of ADP-Glo™ Reagent according to supplier instructions. After 40 minutes of incubation at RT, the Kinase Detection Reagent is then added to the assay plate according to supplier instructions. After 20 minutes of incubation at RT, the luminescence signal is measured with a luminometer (PerkinElmer Envision or equivalent reader).

- IC50: 100 to 1000 nM
SMILES: Cn1cc2c(n1)C(=O)NCCCCOc1ccc(=O)n(n1)Cc1cccc(c1)C(=O)N2 [Compound 5, 12-methyl-21-oxa-1,9,12,13,16,26-hexaazatetracyclo[20.3.1.1^3,70^10,14]heptacosa-3,5,7(27),10,13,22(26),23-heptaene-8,15,25-trione]
